Test results from patent US20090048260A1, “Use of pyrrolopyrazine derivatives for the production of medicaments for the treatment of mucoviscidosis and diseases related to protein addressing errors in cells” (priority 2004, published 2009).

The chains behind the UniProt entries cited, without tags or fusion partners.
UniProt P13569, whole entry: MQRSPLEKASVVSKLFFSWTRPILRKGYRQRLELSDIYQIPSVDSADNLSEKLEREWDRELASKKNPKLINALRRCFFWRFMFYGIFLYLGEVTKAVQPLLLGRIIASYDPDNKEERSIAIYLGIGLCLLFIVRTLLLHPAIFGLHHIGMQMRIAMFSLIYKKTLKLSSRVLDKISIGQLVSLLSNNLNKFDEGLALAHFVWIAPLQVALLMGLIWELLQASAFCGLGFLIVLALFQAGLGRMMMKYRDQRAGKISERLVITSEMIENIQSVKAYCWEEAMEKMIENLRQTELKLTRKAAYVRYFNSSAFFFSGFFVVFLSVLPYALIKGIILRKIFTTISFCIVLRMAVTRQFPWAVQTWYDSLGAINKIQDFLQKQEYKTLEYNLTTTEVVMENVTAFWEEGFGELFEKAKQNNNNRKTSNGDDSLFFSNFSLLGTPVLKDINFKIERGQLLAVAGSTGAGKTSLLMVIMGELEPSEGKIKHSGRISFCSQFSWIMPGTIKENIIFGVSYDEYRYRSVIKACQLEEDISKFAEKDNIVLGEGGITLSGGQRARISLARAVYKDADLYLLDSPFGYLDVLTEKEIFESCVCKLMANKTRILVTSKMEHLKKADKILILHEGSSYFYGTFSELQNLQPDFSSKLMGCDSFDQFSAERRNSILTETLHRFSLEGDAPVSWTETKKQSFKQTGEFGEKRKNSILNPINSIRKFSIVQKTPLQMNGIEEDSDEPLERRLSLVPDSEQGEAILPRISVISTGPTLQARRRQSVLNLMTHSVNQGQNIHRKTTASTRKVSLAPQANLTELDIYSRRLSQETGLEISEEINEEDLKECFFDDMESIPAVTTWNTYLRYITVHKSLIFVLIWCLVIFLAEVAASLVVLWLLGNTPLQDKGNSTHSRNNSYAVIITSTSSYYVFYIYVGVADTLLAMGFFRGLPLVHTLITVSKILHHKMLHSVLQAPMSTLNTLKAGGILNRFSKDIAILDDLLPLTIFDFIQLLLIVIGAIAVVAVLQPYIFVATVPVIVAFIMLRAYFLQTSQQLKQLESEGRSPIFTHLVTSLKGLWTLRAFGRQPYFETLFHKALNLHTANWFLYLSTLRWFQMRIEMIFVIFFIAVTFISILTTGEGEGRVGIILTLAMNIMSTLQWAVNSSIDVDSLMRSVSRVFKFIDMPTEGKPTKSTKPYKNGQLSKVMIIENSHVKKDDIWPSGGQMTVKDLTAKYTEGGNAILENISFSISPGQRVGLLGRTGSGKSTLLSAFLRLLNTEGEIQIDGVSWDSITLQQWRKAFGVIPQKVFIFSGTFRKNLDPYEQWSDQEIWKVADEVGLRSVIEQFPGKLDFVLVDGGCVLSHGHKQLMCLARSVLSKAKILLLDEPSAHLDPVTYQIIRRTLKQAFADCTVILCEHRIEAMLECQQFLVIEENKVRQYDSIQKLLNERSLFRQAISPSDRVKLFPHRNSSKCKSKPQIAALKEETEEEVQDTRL

Biological target: T1, wild-type CFTR (Homo sapiens, UniProt P13569)
T1 construct: endogenous in cells; host or cells: Calu-3
Experiment: iodide efflux, activation of the CFTR chloride channel in Calu-3 cells
Type: cell-based
Conditions: human pulmonary epithelial cell line Calu-3
Protocol: Calu-3 cells: Calu-3 cells are human epithelial cells of pulmonary origin which express the wild-type CFTR gene.
the measurements of chloride ion transport in the cells was carried out with the aid of the radioactive iodide efflux technique (Becq et al., 1999; Dormer et al., 2001). The tracer (^125I) is incorporated into the intracellular medium. Next, the quantity of radiotracer which leaves the cell is counted after the addition of various pharmacological agents. Iodide is used as a tracer for the transport of chloride ions. ^125I further has the advantage of having a short life compared with that of other markers such as ^35Cl (respective ½ life: […] and 300000 years).
The cells are cultured on 24-well plates in a suitable medium. 2 rinses with efflux medium (NaCl: 136.6 mM, KCl: 5.4 mM, KH2PO4: 0.3 mM, NaH2PO4: 0.3 mM, NaHCO3: 4.2 mM, CaCl2: 1.3 mM, MgCl2: 0.5 mm, MgSO4: 0.4 mM, HEPES: 10 mM, D-glucose: 5.6 mM) are carried out in order to remove the dead cells which release the radioactivity anarchically. […] A robot (MultiPROBE, Packard) carries out the following steps: the loading medium is rinsed with efflux medium in order to remove the extracellular radioactivity. […] At the end of the experiment, the cells are lyzed by adding 500 μl of NaOH (0.1 N)/0.1% SDS (30 min), thus, the radioactivity which remained inside the cell may be determined. […]

`CCCCc1c(-c2ccc(O)cc2)[nH]c2nccnc12` [aloisine A] was tested, and the EC50 was 140 nM.
